Measurements: patent US11266766B2, “Situ expansion of engineered devices for regeneration” (Massachusetts Institute of Technology, priority 2015, dated 2022)

Test system: CYP34A expression
Settings: animals bearing expanded grafts and injured livers, vs vehicle control

## CO[C@H]1/C=C/O[C@@]2(C)Oc3c(C)c(O)c4c(O)c(c(/C=N/N5CCN(C)CC5)c(O)c4c3C2=O)NC(=O)/C(C)=C\C=C\[C@H](C)[C@H](O)[C@@H](C)[C@@H](O)[C@@H](C)[C@H](OC(C)=O)[C@@H]1C [Rifampin]
  CYP34A expression in grafts: induced
